Consider 1 compound from publication PMC5974779, “Prediction of Drug-Induced Hepatotoxicity Using Long-Term Stable Primary Hepatic 3D Spheroid Cultures in Chemically Defined Conditions” (Toxicological Sciences, 2018).

The subject of data set [1] is primary human hepatocytes (PHH) 3D spheroids.
For data set [2], the system named is PHH spheroids (hanging-drop). The conditions noted are these: cited from earlier work.

For the compound `CN(CCOc1ccc(CC2SC(=O)NC2=O)cc1)c1ccccn1` (stereo not drawn) [Rosiglitazone], in data set [1], the “Chemically defined spheroids (this study) 20x” value is listed as “Negative” and the “hepatotoxicity evaluation in CD-spheroids” value is “did not indicate any hepatic liabilities”. In addition, the “hepatotoxicity classification in hanging-drop PHH spheroids” value in data set [2] is recorded as “flagged as hepatotoxic”.
